Measured values: patent publication US7294691B1, “Soluble secreted α2δ-2calcium channel subunit polypeptide” (Warner Lambert Company, priority 2000, dated 2007)

By UniProt entry, the sequences of proteins in these tests, tags left out. Chains listed by the source or under a name are the forms on record and can include a tag or linker. Residues count along the entry.
UniProt O77773, 25-1091: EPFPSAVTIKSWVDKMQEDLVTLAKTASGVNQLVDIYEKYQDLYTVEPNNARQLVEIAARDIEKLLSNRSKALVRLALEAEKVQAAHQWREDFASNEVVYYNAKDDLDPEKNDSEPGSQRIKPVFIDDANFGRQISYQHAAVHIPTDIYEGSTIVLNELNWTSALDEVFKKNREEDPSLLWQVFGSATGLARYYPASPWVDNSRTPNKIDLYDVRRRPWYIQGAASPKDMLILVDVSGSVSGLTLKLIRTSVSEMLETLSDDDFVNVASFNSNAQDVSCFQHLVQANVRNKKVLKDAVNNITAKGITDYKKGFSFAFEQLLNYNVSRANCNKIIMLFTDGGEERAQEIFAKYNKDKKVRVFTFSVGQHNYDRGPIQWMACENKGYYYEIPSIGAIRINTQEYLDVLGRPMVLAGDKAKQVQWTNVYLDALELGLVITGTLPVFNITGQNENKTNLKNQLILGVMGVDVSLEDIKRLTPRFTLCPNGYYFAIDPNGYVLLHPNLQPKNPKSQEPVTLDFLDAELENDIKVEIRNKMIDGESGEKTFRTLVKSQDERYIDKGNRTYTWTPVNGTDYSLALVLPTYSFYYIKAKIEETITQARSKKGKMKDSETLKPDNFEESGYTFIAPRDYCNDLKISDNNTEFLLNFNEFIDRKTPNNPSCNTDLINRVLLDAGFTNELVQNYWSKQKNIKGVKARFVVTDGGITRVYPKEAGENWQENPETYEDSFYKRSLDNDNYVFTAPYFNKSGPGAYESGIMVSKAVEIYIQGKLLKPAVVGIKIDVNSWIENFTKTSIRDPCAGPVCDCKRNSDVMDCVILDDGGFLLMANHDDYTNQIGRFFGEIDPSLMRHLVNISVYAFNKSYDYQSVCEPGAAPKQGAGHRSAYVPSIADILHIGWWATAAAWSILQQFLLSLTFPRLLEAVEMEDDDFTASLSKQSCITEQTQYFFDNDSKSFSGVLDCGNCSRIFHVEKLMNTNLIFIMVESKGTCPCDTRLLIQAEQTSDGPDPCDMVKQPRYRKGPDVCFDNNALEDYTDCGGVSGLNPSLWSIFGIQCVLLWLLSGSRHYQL
UniProt Q9NY47, with tags, fused parts or gaps isoform Q9NY47-3: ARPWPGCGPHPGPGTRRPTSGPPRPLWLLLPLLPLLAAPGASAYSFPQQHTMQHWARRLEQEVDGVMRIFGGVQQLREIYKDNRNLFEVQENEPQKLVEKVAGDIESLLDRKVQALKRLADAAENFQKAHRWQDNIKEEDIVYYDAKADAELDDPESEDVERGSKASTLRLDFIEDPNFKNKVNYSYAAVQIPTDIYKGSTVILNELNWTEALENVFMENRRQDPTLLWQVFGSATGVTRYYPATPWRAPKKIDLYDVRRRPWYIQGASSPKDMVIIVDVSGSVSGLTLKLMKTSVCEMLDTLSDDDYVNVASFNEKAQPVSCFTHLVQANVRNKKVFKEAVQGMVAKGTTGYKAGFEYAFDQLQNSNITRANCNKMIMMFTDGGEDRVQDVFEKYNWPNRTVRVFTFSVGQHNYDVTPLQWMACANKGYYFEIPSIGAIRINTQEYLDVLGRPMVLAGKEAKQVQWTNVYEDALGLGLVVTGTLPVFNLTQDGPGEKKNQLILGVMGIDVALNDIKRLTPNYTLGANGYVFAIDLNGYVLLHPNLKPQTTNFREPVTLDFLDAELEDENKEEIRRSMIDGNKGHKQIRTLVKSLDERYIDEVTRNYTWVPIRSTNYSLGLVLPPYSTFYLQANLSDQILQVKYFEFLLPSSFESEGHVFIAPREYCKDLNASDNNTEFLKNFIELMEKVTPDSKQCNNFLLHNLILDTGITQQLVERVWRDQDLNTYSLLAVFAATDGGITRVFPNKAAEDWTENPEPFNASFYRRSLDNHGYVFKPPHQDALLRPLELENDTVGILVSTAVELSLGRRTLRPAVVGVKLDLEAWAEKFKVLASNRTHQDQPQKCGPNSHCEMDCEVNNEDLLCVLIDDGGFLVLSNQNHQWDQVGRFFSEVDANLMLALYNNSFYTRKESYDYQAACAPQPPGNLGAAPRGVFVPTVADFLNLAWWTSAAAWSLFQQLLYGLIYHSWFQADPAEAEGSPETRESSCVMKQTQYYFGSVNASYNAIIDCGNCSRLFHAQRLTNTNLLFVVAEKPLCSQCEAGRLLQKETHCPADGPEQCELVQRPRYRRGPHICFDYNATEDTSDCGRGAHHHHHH

What was measured:
[1] = molecular target: [^3H]gabapentin site in porcine cortical membranes (Sus scrofa, UniProt O77773); experiment: [^3H]gabapentin binding, porcine cortical membranes; conditions: read-out: IC50 arithmetic mean (n = 3) ± S.E.M.
[2] = molecular target: T1, secreted soluble human α2δ-2 subunit polypeptide of SEQ ID No. 23 (s-α2δ-2-6His) (Homo sapiens, UniProt Q9NY47); experiment: Filter binding assay of [^3H]gabapentin binding to s-α2δ-2-6His; conditions: [^3H]gabapentin binding assay using s-α2δ-2-6His; Ki = IC50/(1 + [L]/KD); read-out: Ki (n = 3), filtration assay
T1 construct: made in house; host or cells: baculovirus / Sf9 insect cells

“(1-aminomethyl)cyclohexane acetic acid [Gabapentin]” showed an IC50 [1] of 42.1 ± 5.5 nM and a Ki [2] of 20 nM.
